{
  "sequences": {"note": "Sequences of proteins named here, by UniProt entry; tags and fusion partners are left off.", "UniProt P29275, whole entry": "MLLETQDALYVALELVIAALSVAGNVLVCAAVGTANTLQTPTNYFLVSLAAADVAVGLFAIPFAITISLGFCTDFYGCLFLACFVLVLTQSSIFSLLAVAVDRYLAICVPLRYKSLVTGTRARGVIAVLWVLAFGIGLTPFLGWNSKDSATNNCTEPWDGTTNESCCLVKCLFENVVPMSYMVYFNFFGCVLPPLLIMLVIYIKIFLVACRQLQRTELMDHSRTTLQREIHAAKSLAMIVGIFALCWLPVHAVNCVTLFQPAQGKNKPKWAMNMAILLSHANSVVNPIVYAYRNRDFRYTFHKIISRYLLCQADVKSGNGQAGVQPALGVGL", "UniProt P0DMS8, whole entry": "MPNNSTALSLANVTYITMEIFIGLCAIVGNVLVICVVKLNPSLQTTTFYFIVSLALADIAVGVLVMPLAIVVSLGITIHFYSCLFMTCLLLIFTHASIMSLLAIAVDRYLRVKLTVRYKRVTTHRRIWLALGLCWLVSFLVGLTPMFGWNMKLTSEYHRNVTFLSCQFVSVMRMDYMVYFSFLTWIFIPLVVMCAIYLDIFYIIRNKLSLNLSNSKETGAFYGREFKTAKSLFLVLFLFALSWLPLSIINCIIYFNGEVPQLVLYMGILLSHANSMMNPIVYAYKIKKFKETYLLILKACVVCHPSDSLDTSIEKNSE"},
  "source": "patent US6686366B1",
  "about": "“Compounds specific to adenosine A3 receptor and uses thereof” (OSI Pharmaceuticals, Inc., priority 1998, dated 2004)",
  "key": {"[1]": {"biological_target": "human A2b receptor subtype (Homo sapiens, UniProt P29275)", "assay": "Adenosine 2b receptor subtype competition radioligand binding, [3H]DPCPX, HEK293 membranes", "conditions": "Table 13; concentration not given"}, "[2]": {"biological_target": "human A3 receptor subtype (Homo sapiens, UniProt P0DMS8)", "assay": "Adenosine 3 receptor competition radioligand binding, [125I]AB-MECA, HEK293 membranes", "conditions": "read-out: Binding Ki (nM) A3; Table 13"}},
  "data": [
    {"compound": "Cc1[nH]c2nc(-c3ccccc3)nc(N[C@H]3CC[C@H](O)CC3)c2c1C", "values": [
      {"measurement": "Binding A2b, value given in %", "setting": "[1]", "result": 30, "unit": "%"},
      {"measurement": "Ki", "setting": "[2]", "result": 9.9, "unit": "nM"}
    ]}
  ]
}
